# Laboratory results reported in PubChem BioAssay AID652025 (National Center for Advancing Translational Sciences (NCATS), 2013).
# This is a selection; strong and weak results do not stand in their true shares. Calls of active or inactive are those of the source. Rule as the data show it: active = activation above about 50%; inconclusive = mostly about 30% to 49%; inactive = weaker than that.
# Experiment: qHTS of IL-2 Activators; also: 0% is about no effect
# Settings: IL-2 activation reporter assay, cell-based qHTS; active compounds read high; in transgenic mouse T cells; stimulated with anti-CD3/CD4/CD28 beads
# Excerpt: The adaptive immune response against any infectious agent begins with the activation of an antigen specific T cell. This relatively rare and inert ("naive") T cell undergoes a massive proliferative expansion and differentiation process to generate sufficient number of potent pathogen-specific effector T cells. The effector T cells fight the infection by making cytokines and helping other cells to become fully armed as well. If any naive T cell has antigen receptors (TCRs) that can be activated by self peptides, then a variety of regulatory mechanisms kick in to prevent this cell from performing to its full potential. These processes collectively constitute the phenomenon of immunological tolerance and their failure leads to autoimmunity. One arm of tolerance involves generation of biochemical negative feedback downstream of the TCR (tuning). This is especially relevant to self antigens present in the body over long periods of time (chronic), which form the bulk of our proteome. The negative feedback serves to tune the TCR signaling, such that the ambient antigenic stimulation is nullified intracellularly. Unfortunately, this critical machinery serves as a target for chronic viral, bacterial and parasitic infections (as well as tumors), which can evade a robust immune response, simply by allowing T cells to tune down their signaling to pathogen or malignancy derived antigens. As such, disrupting the tuning in such cases would allow the tolerant T cell to function again and deliver a robust effector response.
# If a therapeutic can restore responsiveness to the tuned down T cell, even for a short time, they could combat the pathogen without any additional immunization. To that end, we have developed a sensitive HTS T cell based assay based on IL-2. This assay will be screened against the Molecular Libraries Small Molecule Repository (MLSMR) to find small molecules that could elicit this response.
# NIH Chemical Genomics Center [NCGC]
# NIH Molecular Libraries Probe Centers Network [MLPCN]
# Assay Submitter (PI): Ron Schwartz, NIAID
# 4 microL (750 cells/well) of unstimulated transgenic mouse T cells (columns 1-3,5-48) are dispensed into Aurora LoBase, black clear-bottom 1536-well assay plates; column 4 receives an identical concentration of transgenic memory T cells as a non-tolerant control. Compounds are then transferred via Kalypsys pin tool equipped with 1536-pin array (10 nL slotted pins, V&P Scientific, San Diego, CA). Following addition of compound and a 60 minute incubation, 1 microL of bead stimulation solution ((0.04 micron Fluospheres (Life technologies, CA) coated with 10ug/ml each anti-CD3 and anti-CD4 (clones 2C11 and GK1.5, BD Biosciences, CA) and mixed with 1ug/ml anti-CD28 (clone PV-1, BD biosciences, CA)). columns 2-48) is added to stimulate the IL-2 response pathway; media is instead added to column 1 as an unstimulated control, while PMA/ionomycin (Sigma Aldrich, MO) is added to column 3 as a control for IL-2 tolerance bypass. The plates are then incubated at 37 degrees C for 18 hours. EGFP and DsRed signal are then detected using an Acumen eX3 Explorer fluorescent plate cytometer. All cells are dispensed in cell media containing EHAA (Quality Biologicals, MD), RPMI (Quality Biologicals, MD), Glutamine (Life Technologies, CA), Penicillin/Streptomycin (Quality Biologicals, MD), 2-ME (Sigma Aldrich, MO) and 10% FBS (Gemini Bioproducts, CA) .
row,Structure (SMILES),activation
1,Clc1ccc(Cl)c(NC2=NCC(CBr)S2)c1 (centres undefined),inactive: 0.256%
2,CN1CCCC(OC(=O)C(c2ccccc2)c2ccccc2)C1 (centres undefined),inactive: -0.916%
3,Cc1ccc(OP(=O)(Nc2nccs2)Oc2ccc(C)cc2)cc1,inactive: -0.207%
4,COc1ccccc1OP(=O)(Nc1ccc(C)cn1)Oc1ccccc1OC,inactive: -2.75%
5,Nc1cccc2ccc([As](=O)(O)O)cc12,inactive: 0.54%
6,CCN(N=Nc1nonc1N)c1nonc1N,inactive: 0.423%
7,CN(C)P(=O)(N(C)C)n1c(Nc2ccccc2)nnc1-c1ccccc1,inactive: -2.67%
8,O=P(Nc1nc2ccc(Cl)cc2s1)(c1ccccc1)c1ccccc1,inactive: 2.21%
9,CCCC1OP(N)(=O)OCC1CC (centres undefined),inactive: -0.0479%
10,O=C(O)c1ccccc1[As](=O)(O)O,inactive: -0.741%
11,CC(=O)Nc1ccc([As](=O)(O)O)cc1,inactive: -3.38%
12,CN(C(=O)Cc1ccc(Cl)c(Cl)c1)[C@H]1CCCC[C@@H]1N1CCCC1,inactive: 0.662%
13,Cc1ccc(NP(=O)(Oc2ccccc2F)Oc2ccccc2F)nc1,inactive: -3.27%
14,CCOP(=O)(Nc1ccccc1)OCC,inactive: -0.495%
15,Cc1cc(SC(NC(=O)c2ccc(F)cc2)C(Cl)(Cl)Cl)ncn1 (centres undefined),inactive: -0.645%
16,O=[N+]([O-])c1ncn(CCn2ncnc2[N+](=O)[O-])n1,inactive: 0.192%
17,CC(C)(C)C(=O)NC(Sc1ccncn1)C(Cl)(Cl)Cl (centres undefined),inactive: 2.61%
18,O=C(O)CNc1ccc([As](=O)(O)O)cc1,inactive: 0.889%
19,O=[N+]([O-])c1cccc(NC2=NCC(CBr)S2)c1 (centres undefined),inactive: -0.022%
20,COC(=O)C1(C)COP(=O)(Nc2ccccc2)OC1 (centres undefined),inactive: -1.8%
21,O=P1(N(CCCl)CCCl)OCCCS1 (centres undefined),inactive: 1.07%
22,O=C(Nc1cc([As](=O)(O)O)ccc1O)c1ccccc1,inactive: -1.82%
23,CCN(/C(=N/P(=O)(N1CCOCC1)N1CCOCC1)N1CCOCC1)c1ccc(OC)cc1,inactive: 2%
24,C[N+]1=C2C=CC=CC=C2SC12C([N+](=O)[O-])=CC([N+](=O)[O-])=C[C-]2[N+](=O)[O-] (centres undefined),inactive: -1.02%
25,Nc1ccc([As](=O)(O)c2ccc(N)cc2)cc1,inactive: -2.89%
26,c1cc(-c2nn[nH]n2)ccc1-c1nn[nH]n1,inactive: -0.027%
27,CC1CCN(C(=O)Oc2c(Cl)cc(Cl)c3cccnc23)CC1,inactive: -0.858%
28,CN(C)C(=O)OCCc1n(C)cc[n+]1C,inactive: -4.12%
29,CC(C)=N/N=C(\N)N[N+](=O)[O-],inactive: -0.634%
